Amino acid sequences for entries named in this document (tags omitted).
UniProt P54687, whole entry: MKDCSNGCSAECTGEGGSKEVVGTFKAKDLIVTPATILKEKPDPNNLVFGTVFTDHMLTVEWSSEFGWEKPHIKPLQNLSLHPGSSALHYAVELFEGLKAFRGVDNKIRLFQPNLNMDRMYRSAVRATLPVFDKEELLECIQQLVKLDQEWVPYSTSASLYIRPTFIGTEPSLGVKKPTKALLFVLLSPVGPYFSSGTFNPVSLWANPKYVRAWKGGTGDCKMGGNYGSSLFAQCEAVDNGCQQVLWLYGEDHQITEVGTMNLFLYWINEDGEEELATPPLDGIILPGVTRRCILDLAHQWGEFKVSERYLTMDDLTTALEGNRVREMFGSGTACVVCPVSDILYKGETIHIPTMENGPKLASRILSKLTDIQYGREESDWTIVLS

According to patent publication US6809119B2, “Branched chain amino acid-dependent aminotransferase inhibitors and their use in the treatment of neurodegenerative diseases” (Warner-Lambert Company LLC, priority 2001, dated 2004):

Target: human Branched Chain Amino Acid Aminotransferase cytosolic form (hBCATc) (Homo sapiens, UniProt P54687)
Assay: In vitro coupled enzyme assay, human BCAT cytosolic form
Details: read-out: rhBCATc; inhibition of recombinant human BCATc; coupled glutamate dehydrogenase/NADH assay, 37° C., pH 7.8
Method: In vitro enzyme assay: human Branched Chain Amino Acid Aminotransferase cytosolic form (hBCATc) and mitochondrial form (hBCATm) as well as rat BCAT cytosolic form were assayed at 37° C. in 25 mM phosphate buffer pH 7.8. In addition, 2 mM DTT and 12.5 mM EDTA were added to the assay mixture. A coupling enzyme assay was used to monitor the production of glutamate. The formation of NADH from NAD+at […] was followed on a 96-well plate Molecular Devices plate reader. The following components were used in this coupled assay: 4 mM ADP, 1 mM NAD+, 750 μM L-Leucine, 500 μM a-ketoglutarate, 10 μM pyridoxal phosphate, 1 unit glutamate dehydrogenase, and 1.25 μg of the appropriate BCAT enzyme. Inhibitions by compounds were assayed by adding various concentrations to this coupled assay procedure as a DMSO stock up to a 5% v/v DMSO/buffer ratio.
Enzyme Preparation: humanBCATc and ratBCATc were expressed in BL21(DE3) cells. A growing culture of cells was induced with 1 mM IPTG at room temperature overnight. These cells were harvested by centrifugation at 10,000 g for 20 minutes. The supernatant was discarded, and the cells were stored at −80° C. until needed. The protein was purified by the following method. […]

With `COc1ccc(S(=O)(=O)Nc2ccc(C(=O)NNS(=O)(=O)c3ccccc3)cc2)cc1OC` the IC50 was 10 µM.
